From publication PMC12102759 (Protein Science : A Publication of the Protein Society, 2025)

The chains behind the UniProt entries cited, without tags or fusion partners. Residues count along the entry.
UniProt Q9Y490, 309-401: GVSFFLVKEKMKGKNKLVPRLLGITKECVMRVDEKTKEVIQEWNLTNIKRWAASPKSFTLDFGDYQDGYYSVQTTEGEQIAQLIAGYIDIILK

Target: TLN1 PTB (Homo sapiens, UniProt Q9Y490)
Assay type: binding
Settings: for NGS_counts log2_total: DMS-BM phage selection against TLN1 PTB, log2 of summed NGS counts

Row | Substance | DMS-derived PSSM value, averaged over the two overlapping peptides | DMS-derived PSSM value of the single-substitution variant | further results
1 | TDERSWVYSPLHYS(averaged) S5G (TDERGWVYSPLHYS) | 0.00973 |  | 
2 | TDERSWVYSPLHYS(averaged) V7W (TDERSWWYSPLHYS) | 0.04074 |  | 
3 | FPTDERSWVYSPLHYS Y10W (FPTDERSWVWSPLHYS) |  | 0.007525 | 
4 | FPTDERSWVYSPLHYS L13I (FPTDERSWVYSPIHYS) |  | 0.1109 | 
5 | TDERSWVYSPLHYSAQ S5A (TDERAWVYSPLHYSAQ) |  | 0.06991 | 
6 | TDERSWVYSPLHYS(averaged) H12A (TDERSWVYSPLAYS) | 0.03866 |  | 
7 | Ac-LADLIFTDSKLYAPLE-NH2 [TPTE2_I104A] |  |  | NGS_counts log2_total: 2.58
8 | TDERSWVYSPLHYS(averaged) E3F (TDFRSWVYSPLHYS) | 0.06443 |  | 
9 | TDERSWVYSPLHYS(averaged) W6F (TDERSFVYSPLHYS) | 0.1658 |  | 
10 | TDERSWVYSPLHYSAQ S5W (TDERWWVYSPLHYSAQ) |  | 0.01123 | 
11 | TDERSWVYSPLHYSAQ V7F (TDERSWFYSPLHYSAQ) |  | 0.006179 | 
12 | TDERSWVYSPLHYS(averaged) D2G (TGERSWVYSPLHYS) | 0.1597 |  | 
13 | TDERSWVYSPLHYS(averaged) L11G (TDERSWVYSPGHYS) | 0.02345 |  | 
14 | TDERSWVYSPLHYSAQ V7N (TDERSWNYSPLHYSAQ) |  | 0.1374 | 
15 | TDERSWVYSPLHYS(averaged) Y8R (TDERSWVRSPLHYS) | 0.1139 |  | 
16 | FPTDERSWVYSPLHYS H14S (FPTDERSWVYSPLSYS) |  | 0.06988 | 
17 | TDERSWVYSPLHYSAQ L11H (TDERSWVYSPHHYSAQ) |  | 0.019 | 
18 | TDERSWVYSPLHYS(averaged) T1Q (QDERSWVYSPLHYS) | 0.05185 |  | 
19 | FPTDERSWVYSPLHYS D4W (FPTWERSWVYSPLHYS) |  | 0.03033 | 
20 | TDERSWVYSPLHYS(averaged) P10D (TDERSWVYSDLHYS) | 0.01669 |  | 
21 | TDERSWVYSPLHYS(averaged) T1W (WDERSWVYSPLHYS) | 0.05997 |  | 
22 | TDERSWVYSPLHYSAQ R4F (TDEFSWVYSPLHYSAQ) |  | 0.02428 | 
23 | FPTDERSWVYSPLHYS S16S |  | 0.02006 | 

Row | Substance | DMS-derived PSSM value, averaged over the two overlapping peptides | DMS-derived PSSM value of the single-substitution variant | further results
24 | TDERSWVYSPLHYS(averaged) H12L (TDERSWVYSPLLYS) | 0.02664 |  | 
25 | TDERSWVYSPLHYS(averaged) Y8I (TDERSWVISPLHYS) | 0.0304 |  | 
26 | FPTDERSWVYSPLHYS W8D (FPTDERSDVYSPLHYS) |  | 0 | 
27 | TDERSWVYSPLHYS(averaged) T1H (HDERSWVYSPLHYS) | 0.0316 |  | 
28 | TDERSWVYSPLHYSAQ E3L (TDLRSWVYSPLHYSAQ) |  | 0.07536 | 
29 | TDERSWVYSPLHYS(averaged) S9G (TDERSWVYGPLHYS) | 0.0002972 |  | 
30 | TDERSWVYSPLHYS(averaged) T1F (FDERSWVYSPLHYS) | 0.02588 |  | 
31 | TDERSWVYSPLHYSAQ E3P (TDPRSWVYSPLHYSAQ) |  | 0.00481 | 
32 | TDERSWVYSPLHYSAQ V7M (TDERSWMYSPLHYSAQ) |  | 0.01699 | 
33 | TDERSWVYSPLHYS(averaged) P10I (TDERSWVYSILHYS) | 0.03459 |  | 
34 | FPTDERSWVYSPLHYS H14Y (FPTDERSWVYSPLYYS) |  | 0.02017 | 
35 | TDERSWVYSPLHYSAQ R4M (TDEMSWVYSPLHYSAQ) |  | 0.01709 | 
36 | FPTDERSWVYSPLHYS D4D |  | 0.04783 | 
37 | TDERSWVYSPLHYSAQ A15P (TDERSWVYSPLHYSPQ) |  | 0.07792 | 
38 | TDERSWVYSPLHYSAQ S5S |  | 0.106 | 
39 | TDERSWVYSPLHYS(averaged) D2Y (TYERSWVYSPLHYS) | 0.01192 |  | 
40 | FPTDERSWVYSPLHYS H14M (FPTDERSWVYSPLMYS) |  | 0.215 | 
41 | FPTDERSWVYSPLHYS Y10D (FPTDERSWVDSPLHYS) |  | 0.0443 | 
42 | FPTDERSWVYSPLHYS R6Q (FPTDEQSWVYSPLHYS) |  | 0.0108 | 
43 | TDERSWVYSPLHYSAQ T1Q (QDERSWVYSPLHYSAQ) |  | 0.0308 | 
44 | TDERSWVYSPLHYS(averaged) H12H | 0.1119 |  | 
45 | TDERSWVYSPLHYSAQ V7G (TDERSWGYSPLHYSAQ) |  | 0.006634 | 
46 | TDERSWVYSPLHYSAQ A15V (TDERSWVYSPLHYSVQ) |  | 0.005886 | 

Row | Substance | DMS-derived PSSM value, averaged over the two overlapping peptides | DMS-derived PSSM value of the single-substitution variant | further results
47 | TDERSWVYSPLHYS(averaged) S9A (TDERSWVYAPLHYS) | 0.1265 |  | 
48 | TDERSWVYSPLHYS(averaged) S9P (TDERSWVYPPLHYS) | 0.1107 |  | 
49 | TDERSWVYSPLHYSAQ W6R (TDERSRVYSPLHYSAQ) |  | 0.01647 | 
50 | TDERSWVYSPLHYSAQ D2S (TSERSWVYSPLHYSAQ) |  | 0.03884 | 
51 | FPTDERSWVYSPLHYS P2T (FTTDERSWVYSPLHYS) |  | 0.04429 | 
52 | TDERSWVYSPLHYSAQ P10V (TDERSWVYSVLHYSAQ) |  | 0.01176 | 
53 | TDERSWVYSPLHYSAQ L11D (TDERSWVYSPDHYSAQ) |  | 0 | 
54 | FPTDERSWVYSPLHYS Y10K (FPTDERSWVKSPLHYS) |  | 0.09285 | 
55 | TDERSWVYSPLHYS(averaged) S5A (TDERAWVYSPLHYS) | 0.03937 |  | 
56 | TDERSWVYSPLHYSAQ R4V (TDEVSWVYSPLHYSAQ) |  | 0.03649 | 
57 | TDERSWVYSPLHYSAQ W6Q (TDERSQVYSPLHYSAQ) |  | 0 | 
58 | TDERSWVYSPLHYSAQ S9R (TDERSWVYRPLHYSAQ) |  | 0.0008833 | 
59 | TDERSWVYSPLHYS(averaged) R4N (TDENSWVYSPLHYS) | 0.01483 |  | 
60 | FPTDERSWVYSPLHYS H14Q (FPTDERSWVYSPLQYS) |  | 0.0224 | 
61 | TDERSWVYSPLHYS(averaged) S14A (TDERSWVYSPLHYA) | 0.07928 |  | 
62 | TDERSWVYSPLHYS(averaged) V7S (TDERSWSYSPLHYS) | 0.01626 |  | 
63 | TDERSWVYSPLHYS(averaged) Y8P (TDERSWVPSPLHYS) | 0.02017 |  | 
64 | TDERSWVYSPLHYS(averaged) W6W | 0.7004 |  | 
65 | TDERSWVYSPLHYS(averaged) S9Y (TDERSWVYYPLHYS) | 0.01193 |  | 
66 | TDERSWVYSPLHYS(averaged) Y13G (TDERSWVYSPLHGS) | 0.03896 |  | 
67 | TDERSWVYSPLHYSAQ P10I (TDERSWVYSILHYSAQ) |  | 0.006309 | 
68 | TDERSWVYSPLHYSAQ S5F (TDERFWVYSPLHYSAQ) |  | 0.003602 | 
69 | TDERSWVYSPLHYSAQ T1M (MDERSWVYSPLHYSAQ) |  | 0.009054 | 

Row | Substance | DMS-derived PSSM value, averaged over the two overlapping peptides | DMS-derived PSSM value of the single-substitution variant | further results
70 | TDERSWVYSPLHYSAQ L11M (TDERSWVYSPMHYSAQ) |  | 0.02298 | 
71 | TDERSWVYSPLHYSAQ S5K (TDERKWVYSPLHYSAQ) |  | 0.01128 | 
72 | FPTDERSWVYSPLHYS V9V |  | 0.007982 | 
73 | TDERSWVYSPLHYSAQ D2R (TRERSWVYSPLHYSAQ) |  | 0.03203 | 
74 | TDERSWVYSPLHYSAQ T1S (SDERSWVYSPLHYSAQ) |  | 0.07038 | 
75 | TDERSWVYSPLHYSAQ W6G (TDERSGVYSPLHYSAQ) |  | 0.003987 | 
76 | FPTDERSWVYSPLHYS Y15I (FPTDERSWVYSPLHIS) |  | 0.02212 | 
77 | TDERSWVYSPLHYSAQ H12V (TDERSWVYSPLVYSAQ) |  | 0.08395 | 
78 | TDERSWVYSPLHYSAQ H12Q (TDERSWVYSPLQYSAQ) |  | 0.1187 | 
79 | TDERSWVYSPLHYS(averaged) Y13V (TDERSWVYSPLHVS) | 0.02157 |  | 
80 | FPTDERSWVYSPLHYS H14K (FPTDERSWVYSPLKYS) |  | 0.02888 | 
81 | TDERSWVYSPLHYS(averaged) L11S (TDERSWVYSPSHYS) | 0.02133 |  | 
82 | FPTDERSWVYSPLHYS H14V (FPTDERSWVYSPLVYS) |  | 0.06265 | 
83 | TDERSWVYSPLHYSAQ Y8N (TDERSWVNSPLHYSAQ) |  | 0.07629 | 
84 | FPTDERSWVYSPLHYS Y10M (FPTDERSWVMSPLHYS) |  | 0.02723 | 
85 | FPTDERSWVYSPLHYS S11K (FPTDERSWVYKPLHYS) |  | 0 | 
86 | FPTDERSWVYSPLHYS R6V (FPTDEVSWVYSPLHYS) |  | 0.1078 | 
87 | FPTDERSWVYSPLHYS S7F (FPTDERFWVYSPLHYS) |  | 0.001838 | 
88 | Ac-LADLIYTDSKLYIPLE-NH2 [TPTE2_F97Y] |  |  | NGS_counts log2_total: 3.91
89 | TDERSWVYSPLHYSAQ A15S (TDERSWVYSPLHYSSQ) |  | 0.02779 | 
90 | TDERSWVYSPLHYSAQ T1L (LDERSWVYSPLHYSAQ) |  | 0.01584 | 
